{"source": "patent US20030099983A1", "about": "“Cyclic and substituted immobilized molecular synthesis” (Affymetrix, Inc., priority 1991, published 2003)", "system": "monoclonal antibody D32.39", "conditions": "relative fluorescence intensity of the corresponding surface-immobilized peptide (N-acetylated, C-terminal amide link to surface)", "data": [{"smiles": "CC(=O)N[C@@H](Cc1ccccc1)C(=O)N[C@@H](CCCCN)C(=O)N[C@H](C(=O)N[C@H](C(=O)N[C@H](C(=O)O)[C@@H](C)O)C(C)C)C(C)C", "note": "[Ac-FKVVT-OH]", "values": [{"measurement": "Normalized Intensity (%)", "result": 13, "unit": "%"}]}]}
